A short description of the data set: Clinical evaluation and platelet counts in M. fascicularis. The following applies: 1.93 mg/kg IM; on one occasion.

The structures appear in SMILES notation.

In the case of `NCC(=O)Nc1cncc(-c2nn3c(=O)cc(N4CCNCC4)nc3s2)c1` [RUC-4], the bleeding observation result was “slight amount of blood was found on the rectal thermal probe”.

Values taken from article PMC4180209 (Arteriosclerosis, thrombosis, and vascular biology, 2014).
